Laboratory results published in publication PMC6104039 (Nature Communications, 2018).

Assays:
HEK293 cells = test: Non-viable cells by propidium iodide staining and flow cytometry, 72 h; format: cell-based
Protocol: Lipid levels are expressed as a percentage of vehicle control levels. […] All graphs show combined data from two independent experiments, each with 3 (a) or 4 (b-d) separate cell treatments, mean ± SEM. Statistical significance in (b-d) was determined by t-tests adjusted for multiple comparisons, comparing all lipids (22 lipids tested in total) at each concentration to the control group; ^+P < 0.05; ^#P < 0.01; *P < 0.001

SkM [1] = test: Lipidomic profiling of skeletal muscle (quadriceps) of mice on chow or HFD; format: in vivo; conditions: 5 mg/kg daily, 4–6 weeks
Text: Male C57BL6/J mice were obtained from the Animal Resources Centre in Perth (WA, Australia). […] Treatment was commenced at the same time as mice were randomised to dietary groups. The experiments were approved by the UNSW animal care and ethics committee (ACEC 15/48B), and followed guidelines issued by the National Health and Medical Research Council of Australia.
Lipids were extracted from frozen tissue samples or cells using a two-phase procedure with methyl-tert-butyl ether (MTBE)/methanol/water (10:3:2.5, v/v/v)[67]. Frozen tissue samples (~20 mg) were homogenized in 0.2 mL methanol containing 0.01% butylated hydroxytoluene (BHT), using a Precellys 24 homogenizer and Cryolys cooling unit (Bertin Technologies) with CK14 (1.4-mm ceramic) beads. […]
Lipidomic profiling was performed on a QExactive Plus mass spectrometer with heated electrospray ionization (HESI) probe and a Dionex UltiMate 2000 LC pump (Thermo Fisher Scientific). […] Data were then exported to an Excel spreadsheet for normalisation of each lipid to its class-specific internal standard, and lipid concentrations were calculated relative to the internal standard.

SkM [2] = test system: SkM
SkM [3] = conditions: 4 weeks
CerS1 = molecular target: T1, CerS1 (Homo sapiens, UniProt P27544); test: Ceramide synthase assay, HPLC-based with fluorescent NBD-dihydrosphingosine, C18:0-CoA; extracts of HEK293 cells expressing human CerS1; format: biochemical; set-up: host or cells: HEK293; conditions: selectivity
T1 sequence (P27544 1-350): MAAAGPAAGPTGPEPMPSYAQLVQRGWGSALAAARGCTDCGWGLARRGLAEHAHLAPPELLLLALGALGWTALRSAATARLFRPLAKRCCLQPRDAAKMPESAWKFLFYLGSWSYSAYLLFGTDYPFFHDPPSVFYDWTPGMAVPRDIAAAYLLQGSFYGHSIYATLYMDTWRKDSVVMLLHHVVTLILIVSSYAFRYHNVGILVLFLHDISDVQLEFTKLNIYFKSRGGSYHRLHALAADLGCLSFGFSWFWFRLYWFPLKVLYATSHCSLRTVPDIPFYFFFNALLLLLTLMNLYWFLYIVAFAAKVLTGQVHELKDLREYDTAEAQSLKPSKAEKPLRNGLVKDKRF
Protocol: Ceramide synthase assays were carried out using an HPLC-based assay with a fluorescent NBD-dihydrosphingosine substrate. All cell lines used for these assays were originally sourced from ATCC. […] Cells were sonicated in a Diagenode Bioruptor sonicating bath for 5 min, after which cell extracts were cleared by centrifugation at 800 × g for 10 min. Protein concentration in the supernatant was assayed using the bicinchoninic acid (BCA) assay, and the supernatant stored at −80 °C. COS cells were infected with lentiviral constructs expressing murine CerS1, 2, or 5, then homogenised as described above.
The reaction buffer consisted of 20 mM Hepes pH 7.4, 25 mM KCl, 2 mM MgCl2, 0.5 mM dithiothreitol, 0.1% fatty acid free BSA, 10 μM NBD-dihydrosphingosine and 50 μM fatty acid free BSA. C18:0-CoA was used as the fatty acyl substrate for CerS1 and CerS4; C24:1-CoA for CerS2; and C16:0-CoA for CerS5 and CerS6. All reactions were run in triplicate. […] The reaction mixture was transferred to a glass HPLC vial with 300 μL fused glass insert (Thermo Fisher Scientific) and NBD-dihydroceramide reaction products were analysed on a Thermo Scientific Surveyor HPLC connected to a Shimadzu RF-10AXL fluorescent detector (set to gain of 3). […]

C[C@@](N)(CO)CCc1ccc(OCc2ccc(Cl)c(Cl)c2)cc1 [P053, (S)-2-amino-4-(4-(3,4-dichlorobenzyloxy)phenyl)-2-methylbutan-1-ol]
concentrations inhibiting C18 ceramide synthesis relative to those required to promote apoptosis (HEK293 cells): at least one order of magnitude lower | 18:1/18:0 and 18:2/18:0 ceramide in SkM (SkM [1]): significantly reduced | citrate synthase activity (SkM [2]): increased activity | βHAD activity (SkM [2]; P = 0.06): increased activity | C24 ceramide synthase activity in SkM (SkM [3]): not associated with increased C24 ceramide synthase activity | IC50's for CerS2, CerS4, CerS5 and CerS6 relative to CerS1 (CerS1): at least one order of magnitude higher
